Source: article PMC11817610, “Stereoselective Synthesis and Biological Evaluation of Perhydroquinoxaline-Based κ Receptor Agonists” (International Journal of Molecular Sciences, 2025)

By UniProt entry, the sequences of proteins in these tests, tags left out. Where a name states a change or a piece, a line headed by the entry shows the natural chain unless it says otherwise.
UniProt P41144: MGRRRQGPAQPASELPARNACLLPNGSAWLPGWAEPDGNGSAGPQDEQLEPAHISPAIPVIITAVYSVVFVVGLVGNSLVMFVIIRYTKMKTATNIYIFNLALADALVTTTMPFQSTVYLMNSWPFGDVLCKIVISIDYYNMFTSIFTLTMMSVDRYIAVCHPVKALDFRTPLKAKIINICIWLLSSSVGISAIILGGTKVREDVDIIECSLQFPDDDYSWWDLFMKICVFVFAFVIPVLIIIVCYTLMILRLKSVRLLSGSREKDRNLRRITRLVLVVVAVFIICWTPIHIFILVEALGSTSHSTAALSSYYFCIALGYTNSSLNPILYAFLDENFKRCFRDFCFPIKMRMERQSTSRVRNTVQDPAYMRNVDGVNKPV

Biological target: κ receptor (Cavia porcellus, UniProt P41144)
Experiment: κ receptor radioligand binding assay with [3H]U-69,593, guinea pig brain membranes
Settings: for Ki: read-out: Ki ± SEM κ Receptor, [3H]U-69,593, guinea pig brain membranes, with SEM n = 3, without SEM one experiment

Structure (SMILES)	Ki [nM]	Kd (read-out: Kd-value of the radioligand, κ assay, guinea pig brain membrane preparation) [nM]
CN(C(=O)Cc1ccc(Cl)c(Cl)c1)C1CCCCC1N1CCCC1 (stereo not drawn)	0.34	–
CN(C(=O)Cc1ccc(Cl)c(Cl)c1)C1CCC2(CCCO2)CC1N1CCCC1 (stereo not drawn)	0.88	0.69
